Shown are actives, neighbours in structure and some others; about 1% of the full set was active somewhere.
Rtt109 Vps75 = blocks Candida albicans Rtt109/Vps75 acetyltransferase activity. Q5AAJ8. inhibition, % at 34.9 µM. 0.16% of 330,000 active. purified Rtt109/Vps75, ThioGlo CoA-SH fluorescence, 4 h;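 active means inhibition of at least 50% in every replicate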
Statin myotox sup = suppression of simvastatin myotoxicity; 0.78% of 330,000 active; C2C12 myotubes + simvastatin, ATP luminescence, 48 h; scaled: DMSO 0, geranylgeraniol control 100; rescue of ATP level, % at 7.49 µM;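 active means mean ATP rescue above about 67%, or every replicate alone reaching that limit, limit read from the data, passing the limit was not always enough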;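 further: myotubes were challenged with 10 µM simvastatin during compound exposure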
Yeast UUG start-1 = yeast start codon fidelity modulation | S. cerevisiae UUG-firefly luciferase reporter, luminescence/redox ratio | activity score, % at 18.7 µM | hit rate 0.13% among 350,000 | AID 602363;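 active means replicate mean at a twofold rise or more, about +100% in these data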;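 further: firefly luciferase made from a UUG start codon reports start codon fidelity; reporter light over untreated wells divided by growth signal over untreated wells; some hits fall short of that in this replicate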
CDK5 inh = blocks human CDK5/p35 kinase activity. Q00535+Q15078. Recombinant CDK5/p35, ADP-Glo luminescence, 60 min. inhibition, % at 10 µM. 0.01% of 330,000 active;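 active means highest replicate inhibition of at least 50% and at least 75% of replicates reaching 50%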;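 further: plate controls were DMSO neutral control for no effect and GW8510 at 10 µM for full effect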
Cneo AK release = Cryptococcus neoformans lysis via adenylate kinase release | C. neoformans lysis, adenylate kinase release luminescence, 4 h; normalised: neutral wells 0, clomiphene wells 100 | lysis activity, % at 15 µM | 0.2% of 360,000 active | AID 651654;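 active means mean lysis activity across replicates of at least 80%, whatever share of replicates individually reach that level; inactive means mean lysis activity below 80%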
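Material: C. neoformans cells; Schedule: 4 h static compound exposure, 37 °C, read 1 h post-reagent; Measured by: adenylate kinase release luminescence; Read-out: signal increase indicating cell lysis; Controls: Clomiphene as positive lysis control.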
Yeast UUG start-2 = alters UUG start codon use in yeast | activation, % at 38 µM | shares compounds with Yeast UUG start-1 | S. cerevisiae UUG-start firefly luciferase, luminescence, 4 h; 100% means double the DMSO signal | 540 tested, under 10 active | AID 652061;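 active means signal increase whose fitted curve reaches an absolute level of 40 at a concentration under 10 µM; inactive means activity opposite to the expected increase, or the rest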
Starred values were filed as active, the others as inactive; i = inactive; . = not tested or not shown.

SMILES	Rtt109 Vps75	Statin myotox sup	Yeast UUG start-1	CDK5 inh	Cneo AK release	Yeast UUG start-2
C[C@H]1CN([C@@H](C)CO)C(=O)Cc2cc(NS(=O)(=O)c3ccccc3)ccc2O[C@H]1CN(C)C(=O)Nc1ccc2c(c1)OCO2	.	-18	.	.	.	.
Cc1c(C(=O)OCC(=O)c2ccc3c(c2)OCCO3)oc2ccccc12	-8	-14	-5	-1	1	3
CCN(CC)c1ccc(-c2nc3cnccn3c2NC2CCCC2)cc1	-2	-36	181*	0	-3	3
c1cn2c(NC3CCCCC3)c(-c3ccc(SC4CCCCC4)cc3)nc2cn1	-6	11	-18	0	2	.
C[C@@H]1CN([C@@H](C)CO)C(=O)c2cc(NC(=O)Nc3ccc4c(c3)OCO4)ccc2O[C@@H](C)CCCCO[C@H]1CN(C)C	.	-5	10	.	0	.
Cc1ccc(C(=O)NCCSC(C)(C)C)cc1	1	.	321*	0	-1	-32
Fc1ccc(NC(=S)NCc2cccs2)cc1	8	-37	253*	2	-1	-6
COc1ccc(NC(=O)N(C)C[C@H]2Oc3ccc(NS(=O)(=O)c4ccc(C)cc4)cc3CC(=O)N([C@@H](C)CO)C[C@@H]2C)cc1	.	-11	.	.	.	.
O=C(Nc1ccc([N+](=O)[O-])cc1)C(=O)Nc1cccc(C(=O)O)c1	-1	-52	171*	1	-14	-56
[N-]=[N+]=NCCCNC(=O)Nc1ccccc1	.	.	.	.	-2	.
C[C@@H]1CCCCO[C@@H](CN(C)S(=O)(=O)c2ccc(Cl)cc2)[C@@H](C)CN([C@H](C)CO)C(=O)c2cc(NS(C)(=O)=O)ccc2O1	.	-37	5	.	-3	.
C=CCN(c1ccccc1)S(=O)(=O)c1cccc(C(=O)NNC(=O)c2ccccc2O)c1	-3	10	-18	-2	0	.
C=CCN(c1ccccc1)S(=O)(=O)c1cccc(C(=O)O)c1	8	-4	519*	3	-6	0
CCOC(=O)CNC(=O)c1nn(-c2ccc(OCC)cc2)c(=O)c2ccccc12	7	0	119*	-1	2	-9
CCN1CCN(CCC2Oc3cc([N+](=O)[O-])ccc3NC2=O)CC1 (configuration not stated)	4	-5	-21	1	-2	5
O=C1Nc2ccc([N+](=O)[O-])cc2OC1CCN1CCN(Cc2ccc3c(c2)OCO3)CC1 (configuration not stated)	18	4	611*	0	-2	6
O=Cc1cc([N+](=O)[O-])ccc1N1CCN(Cc2ccc3c(c2)OCO3)CC1	.	-11	-6	0	3	.
O=C1Nc2ccc([N+](=O)[O-])cc2OC1CCN1CCN(Cc2ccccc2)CC1 (configuration not stated)	-5	.	.	0	.	8
COc1ccc(N2CCN(CCC3Oc4cc([N+](=O)[O-])ccc4NC3=O)CC2)cc1 (configuration not stated)	9	-1	-19	0	-7	.
CC(C)C[C@@H](CN)NC(=O)c1nc[nH]c1C(=O)N[C@@H](C)C(=O)CNC[C@H](CC(C)C)NC(=O)c1nc[nH]c1C(=O)N[C@@H](CC(=O)O)C(=O)O	2	-5	6	2	3	.
CC(C)C[C@@H](CNCC(=O)[C@H](C)NC(=O)c1[nH]cnc1C(=O)N[C@@H](C)CN)NC(=O)c1nc[nH]c1C(=O)N[C@@H](Cc1ccccc1)C(=O)O	6	5	3	1	-3	.
CC(C)C[C@@H](CN)NC(=O)c1nc[nH]c1C(=O)N[C@@H](Cc1ccccc1)C(=O)CNC[C@H](C)NC(=O)c1nc[nH]c1C(=O)N[C@@H](C)C(=O)O	-1	-1	0	0	1	.
CC(C)C[C@@H](CN)NC(=O)c1nc[nH]c1C(=O)N[C@@H](Cc1c[nH]c2ccccc12)C(=O)CNC[C@H](C)NC(=O)c1nc[nH]c1C(=O)N[C@@H](C)C(=O)O	6	2	166*	-3	-1	-1
CC(C)C[C@@H](CNCC(=O)[C@H](CC(=O)O)NC(=O)c1[nH]cnc1C(=O)N[C@H](CN)CC(C)C)NC(=O)c1nc[nH]c1C(=O)N[C@@H](C)C(=O)O	3	5	138*	2	-1	1
CC(C)C[C@@H](CNCC(=O)[C@H](CC(C)C)NC(=O)c1[nH]cnc1C(=O)N[C@@H](C)CN)NC(=O)c1nc[nH]c1C(=O)N[C@@H](C)C(=O)O	-3	5	135*	-5	1	14
C[C@H](CO)N1C[C@H](C)[C@@H](CN(C)C(=O)Nc2cccc3ccccc23)Oc2c(NS(=O)(=O)c3cccs3)cccc2C1=O	.	20	0	.	-2	.
Cc1ccc(S(=O)(=O)N(C)C[C@@H]2Oc3ccc(NC(=O)NC4CCCCC4)cc3CC(=O)N([C@H](C)CO)C[C@@H]2C)cc1	.	-61	12	.	0	.
O=C(C[C@@H]1CC[C@H](NC(=O)c2cnccn2)[C@H](CO)O1)NCc1ccccc1F	.	-9	1	.	0	.
C[C@H]1CN([C@@H](C)CO)C(=O)c2ccccc2-c2ccccc2CO[C@@H]1CN(C)Cc1ccc(C(=O)O)cc1	.	-18	9	.	7	.
C[C@@H]1CCCCO[C@H](CN(C)Cc2ccc(C(F)(F)F)cc2)[C@H](C)CN([C@@H](C)CO)C(=O)c2cc(NC(=O)Nc3ccc(F)cc3)ccc2O1	.	.	7	.	43	.

The list goes on; the last 4 above are carried over.
SMILES	Rtt109 Vps75	Statin myotox sup	Yeast UUG start-1	CDK5 inh	Cneo AK release	Yeast UUG start-2
Cc1ccc(S(=O)(=O)N(C)C[C@@H]2Oc3ccc(NC(=O)NC4CCCCC4)cc3CC(=O)N([C@H](C)CO)C[C@@H]2C)cc1	.	-61	12	.	0	.
O=C(C[C@@H]1CC[C@H](NC(=O)c2cnccn2)[C@H](CO)O1)NCc1ccccc1F	.	-9	1	.	0	.
C[C@H]1CN([C@@H](C)CO)C(=O)c2ccccc2-c2ccccc2CO[C@@H]1CN(C)Cc1ccc(C(=O)O)cc1	.	-18	9	.	7	.
C[C@@H]1CCCCO[C@H](CN(C)Cc2ccc(C(F)(F)F)cc2)[C@H](C)CN([C@@H](C)CO)C(=O)c2cc(NC(=O)Nc3ccc(F)cc3)ccc2O1	.	.	7	.	43	.
C[C@H]1CCCCO[C@H](CN(C)C(=O)c2ccccc2)[C@@H](C)CN([C@@H](C)CO)C(=O)c2cc(NC(=O)CCC(F)(F)F)ccc2O1	.	.	128*	.	-8	i
C[C@H](CO)N1C[C@H](C)[C@H](CN(C)Cc2ccccc2)OCCCC[C@H](C)Oc2ccc(NS(=O)(=O)c3ccc(F)cc3)cc2C1=O	.	.	235*	.	2	i
Cc1noc(C)c1NC(=O)N(C)C[C@@H]1OCCCC[C@H](C)Oc2ccc(NS(=O)(=O)c3ccc(F)cc3)cc2C(=O)N([C@@H](C)CO)C[C@@H]1C	.	-25	183*	.	-3	i
C[C@H](CO)N1C[C@H](C)[C@H](CN(C)Cc2ccc(C(F)(F)F)cc2)OCCCC[C@H](C)Oc2ccc(NC(=O)Nc3ccc(F)cc3)cc2C1=O	.	.	120*	.	-5	i
Cc1noc(C)c1NC(=O)N(C)C[C@H]1OCCCC[C@@H](C)Oc2ccc(NS(=O)(=O)c3ccc(F)cc3)cc2C(=O)N([C@@H](C)CO)C[C@H]1C	.	63	-1	.	0	.
Cc1noc(C)c1S(=O)(=O)N(C)C[C@@H]1Oc2ccc(NS(C)(=O)=O)cc2CC(=O)N([C@H](C)CO)C[C@H]1C	.	-1	8	.	46	.
